# Assay: Solubility of compound (B) in solvent (solid content of saturated solution)
solubility in solvent (solvent: water),solubility in solvent (solvent: hexane) [wt %],solubility in solvent (solvent: 1-propanol) [wt %],solubility in solvent (solvent: EtOH (ethanol)) [wt %],solubility in solvent (solvent: IPA (isopropyl alcohol)) [wt %],solubility in solvent (solvent: n-butanol) [wt %],Substance
less than 0.1 wt %,,,,,,tricyclodecanediyldimethanol di(meth)acrylate
less than 0.1 wt %,0.3,,,,,dipentaerythritol hexa(meth)acrylate
1 wt %,,8,2,7,6,tris(2-hydroxyethyl)isocyanurate tri(meth)acrylate
less than 0.1 wt %,,,,,,trimethylolpropane tri(meth)acrylate
